For one experiment, the system named is human LU1868 lung tumor. In words: Combination with EGFR inhibitor Gefitinib in a human lung cancer model, LU1868. The conditions noted are these: LU1868 patient-derived lung tumor (EGFR L858R, T790M, c-Met expressing) s.c. in female BaIB/c nude mice; oral, 5 days on and 2 days off; benzonitrile hydrochloride hydrate 100 mg/kg, Gefitinib 150 mg/kg, monotherapy or combination; end of treatment. It is filed as in vivo.

In the next experiment the test system is human LU0858 lung tumor. In words: Combination with EGFR inhibitor Gefitinib in a human lung cancer model, LU0858. It is filed as in vivo. The conditions noted are these: LU0858 patient-derived lung tumor (EGFR L858R, c-Met overexpressing) s.c. in female BaIB/c nude mice; oral, 5 days on and 2 days off; benzonitrile hydrochloride hydrate 100 mg/kg, gefitinib 150 mg/kg, monotherapy or combination; end of treatment.

Experimental findings from patent US20160324855A1, “COMBINATION OF A 6-OXO-1,6-DIHYDRO-PYRIDAZINE DERIVATIVE HAVING ANTI-CANCER ACTIVITY WITH GEFITINIB” (MERCK PATENT GMBH, priority 2014, published 2016) are described below.

Each structure is given as a SMILES string.

On to `CN1CCC(COc2cnc(-c3cccc(Cn4nc(-c5cccc(C#N)c5)ccc4=O)c3)nc2)CC1.Cl.O` [3-(1-{3-[5-(1-Methyl-piperidin-4-ylmethoxy)-pyrimidin-2-yl]-benzyl}-6-oxo-1,6-dihydro-pyridazin-3-yl)-benzonitrile hydrochloride hydrate], for which the T/C value in the experiment with human LU1868 lung tumor turned out to be 65%; in the experiment with human LU0858 lung tumor, 3%.

Turning to `COc1cc2ncnc(Nc3ccc(F)c(Cl)c3)c2cc1OCCCN1CCOCC1` [Gefitinib], the T/C value in the experiment with human LU1868 lung tumor turned out to be 71%; in the experiment on human LU0858 lung tumor it was 100%.
